# Test results from patent US20220381657A1, “METHOD FOR PREPARING BIOLOGICAL MATERIAL HAVING EXCELLENT LIGHT-TRANSMITTING PROPERTY” (RIKEN, priority 2016, published 2022).
# Tested on: fixed brain tissue suspension
# Assay: 1st delipidation assay: solubilization of fixed brain tissue suspension, turbidity at 600 nm
# Design: species or system mice
# Conditions: Table 1; 10 wt % chemical, fixed mouse brain suspension, 37° C. overnight; PBS = 1.000
row,Molecule,1st delipidation assay Relative OD600
1,"C[N+](C)(C)Cc1ccccc1.[OH-] [#0387, Benzyltrimethyl- ammonium Hydroxide]",0.258
2,"CC(CN)CCCN (stereo not shown) [#1267, 2-Methyl-1,5-diaminopentane]",0.244

# Tested on: not listed separately
# Assay: Refractive index of high-concentration aqueous solution
# Type: physicochemical
# Conditions: not given
row,Molecule,RI
1,Hydrazine carbonate [#1052],1.4799

# Tested on: mouse kidney
# Assay: Refractive index adjustment of delipidated mouse kidney (transmissive image, transmittance)
# Conditions: compared with 70 wt % Histodenz and 70 wt % sucrose solutions
row,Molecule,appearance and transmittance of mouse kidney after refractive index adjustment
1,"Cc1cc(=O)n(-c2ccccc2)n1C [#0640, 2,3-Dimethyl-1-phenyl-5-pyrazolone]",better results

# Tested on: not listed separately
# Assay: 1st RI evaluation assay: refractive index at 589 nm of 10 wt % aqueous solution
# Type: physicochemical
# Conditions: not given
row,Molecule,1st RI evaluation assay RI of 10% chemical
1,"NCCCNCCCN [#0785, 3,3′-Diamino-dipropylamine]",1.3502
2,"Cc1cc(=O)n(-c2ccccc2)n1C [#0640, 2,3-Dimethyl-1-phenyl-5-pyrazolone]",1.3549

# Same assay, conditions: Table 3; 10 wt % aqueous solution, 589 nm
row,Molecule,1st RI evaluation assay RI of 10% chemical
1,"Cc1cc[n+]([O-])cc1 [#1145, 4- Methylpyridine N-oxide]",1.3538
2,"CNCC(O)c1cccc(O)c1.Cl (racemic) [#1142, DL- Phenylephrine hydrochloride]",1.3539
3,"CN(C)CCSC(=N)N [#0830, S-[2-(Dimethyl-amino)ethyl] isothiourea-dihydrochloride]",1.3527
4,"C1CCC2=NCCCN2CC1.O=C1NC(=O)c2ccccc21 [#1181, Phthalimide DBU salt]",1.3526
5,"Cc1ccc(C(=O)C(C)CN2CCCCC2)cc1.Cl (stereo not shown) [#1392, Tolperisone hydrochloride]",1.3522
6,"Cc1cccc(C)c1NC1=NCCCS1.Cl [#1612, Xylazine hydrochloride]",1.3519
7,"CCCC[n+]1ccccc1.[Br-] [#0315, 1-Butyl-pyridinium bromide]",1.3504
8,"[O-][n+]1ccccc1 [#1078, Pyridine N- oxide]",1.3518
9,"CN(C)C(=O)Oc1cccc([N+](C)(C)C)c1 [#0864, Neostigmine bromide]",1.3503
10,"Cc1cccc[n+]1[O-] [#1140, 2-Methyl-pyridine N-oxide]",1.3511
11,"CCN(CC)C(=O)c1cccnc1 [#0609, N,N-Diethyl- nicotinamide]",1.3502
12,"CN(C)CCSSCCN(C)C [#0299, Bis(2-dimethyl-aminoethyl) disulfide dihydrochloride]",1.3523
13,"OCC1O[C@@H](O[C@]2(CO)O[C@H](CO)C(O)C2O)C(O)C(O)[C@@H]1O (stereo partly drawn) [D-(+)-Sucrose, reference compound]",1.3472
14,"CN(C)C(=O)c1ccccc1 [#0788, N,N- Dimethyl- benzamide]",1.3505
15,"CCCC[N+](CCCC)(CCCC)Cc1ccccc1.[Cl-] [#0307, Benzyltributyl- ammonium chloride]",1.3507
16,"NC[C@H](O)[C@@H](O)[C@H](O)[C@H](O)CO [#0956, D-Glucamine, reference compound]",1.3475
17,"NCCN1CCNCC1 [#0338, N-(2-Aminoethyl) piperazine]",1.3507
18,"NCc1cccnc1 [#1102, 3-Picolylamine]",1.3527
19,"OCCNCc1ccccc1 [#0389, N-Benzyl- ethanolamine]",1.3524
20,"CCCC[n+]1ccccc1.[Cl-] [#0415, 1-Butyl-pyridinium chloride]",1.3505
21,"CC(=O)N(CC(O)CO)c1c(I)c(C(=O)NCC(O)CO)c(I)c(C(=O)NCC(O)CO)c1I (stereo not shown) [Histodenz ™, reference compound]",1.3490
22,"CNC(=O)c1cccnc1 [#1283, N-Methyl- nicotinamide]",1.3522
23,"C[N+](C)(Cc1ccccc1)c1ccccc1.[Cl-] [#0450, Benzyl- dimethyl- phenyl- ammonium chloride]",1.3525

# Biological target: EGFP (Aequorea victoria, UniProt P42212, F64L/H231L/S65T)
# Assay: not given
# Type: biochemical
# Conditions: Table 3
row,Molecule,2nd quenching assay EGFP fluorescence
1,Hydrazine carbonate [#1052],quench free

# Same assay, conditions: stated in the description
row,Molecule,retention of fluorescence of a fluorescent protein
1,Hydrazine carbonate [#1052],allowing retention of fluorescence of a fluorescent protein

# Structures can show the parent of a compound that is named as a salt.
